From PubChem
Hits are enriched below; roughly 1.8% of the tested compounds scored in any of these assays.
E-sel inducer: induces E-selectin expression in human endothelial cells | HUVEC E-selectin immunofluorescence imaging; normalized: neutral wells 0, TNF-alpha wells 100 | P16581 | AID 686992 | activation, % at 7.58 µM | actives 0.37% (n = 260,000);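 active = mean E-selectin-positive cell signal at least 10% of the positive control, reached in at least 60% of replicates, without over 20% cell loss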
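System: HUVEC / Compound: single concentration / Signal: immunofluorescence imaging / Read-out: percent E-selectin-positive cells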
RAD54 inh: RAD54 (human) branch migration inhibition; RAD54 Holliday junction branch migration, FAM/BHQ fluorescence; AID 602329; inhibition, % at 10.4 µM; actives 0.14% (n = 360,000); Q92698;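 active = mean normalized replicate activity at least 40 and at least half of replicates scoring 40 or more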;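 note: 0% = median of neutral control wells and 100% = median of positive control wells; inhibitors cause a drop in the FAM fluorescence signal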
RAD52 anneal inh: blocks human RAD52 DNA annealing. P43351. recombinant RAD52 DNA annealing, FRET fluorescence. inhibition, % at 18.7 µM. actives 0.46% (n = 360,000);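 active = every replicate showing at least 50% inhibition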
SIRT5 block: sirtuin-5 (human) deacylase inhibition; Q9NXA8; Purified SirT5, succinyl-peptide AMC, trypsin-coupled fluorescence; inhibition, % at 15 µM; actives 1.1% (n = 330,000); AID 652115; in the data active = inhibition above about 15%
AF4-AF9 inh: inhibitors of human MLL-AF4/AF9 interaction; AlphaScreen, biotin-AF4 peptide binding to FLAG-AF9; inhibition, % at 10 µM; actives 0.47% (n = 350,000);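 active = every replicate reaching a set inhibition limit, whatever the replicate mean, cut at about 25% in these data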;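 note: 0% = plate neutral control median and 100% = total signal loss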
UUG fidelity: modulators of start codon recognition fidelity in yeast; activity score, % at 18.7 µM; actives 0.13% (n = 350,000); S. cerevisiae UUG-firefly luciferase reporter, luminescence/redox ratio;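 active = replicate mean at a twofold rise or more, about +100% in these data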;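 note: firefly luciferase made from a UUG start codon reports start codon fidelity; reporter light over untreated wells divided by growth signal over untreated wells; some hits fall short of that in this replicate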
An asterisk follows results filed as active; x = no result.

[1] COc1cccc(CNC(=O)C[C@H]2CC[C@H]3[C@H](COc4ccc(NS(=O)(=O)c5ccccc5F)cc4C(=O)N3C)O2)c1
[2] CN1C(=O)c2cc(NS(C)(=O)=O)ccc2OC[C@@H]2O[C@H](CC(=O)NCc3ccc(-c4ccccc4)cc3)CC[C@@H]21
[3] CN1C(=O)c2cc(NS(C)(=O)=O)ccc2OC[C@@H]2O[C@H](CC(=O)NCc3ccc(-c4ccccc4)cc3)CC[C@H]21
[4] COc1cccc(CNC(=O)C[C@H]2CC[C@H]3[C@@H](COc4ccc(NS(=O)(=O)c5ccccc5F)cc4C(=O)N3C)O2)c1
[5] CCNC(=O)C[C@H]1CC[C@H]2[C@@H](COc3ccc(NS(=O)(=O)c4ccccc4C)cc3C(=O)N2C)O1
[6] CC(C)NC(=O)Nc1ccc2c(c1)C(=O)N([C@@H](C)CO)C[C@@H](C)[C@@H](CN(C)CC1CC1)OCCCC[C@@H](C)O2
[7] C[C@@H]1CCCCO[C@@H](CN(C)S(=O)(=O)c2cccs2)[C@@H](C)CN([C@@H](C)CO)C(=O)c2cc(NS(=O)(=O)c3cn(C)cn3)ccc2O1
[8] C[C@@H]1CN([C@@H](C)CO)C(=O)c2cc(NS(=O)(=O)c3cn(C)cn3)ccc2O[C@@H](C)CCCCO[C@@H]1CN(C)S(=O)(=O)c1cccs1

Compound	1	2	3	4	5	6	7	8
E-sel inducer	0	65*	1	0	0	0	x	x
RAD54 inh	-1	-1	-1	3	-3	x	2	-1
RAD52 anneal inh	27	7	12	5	1	x	111*	-122
SIRT5 block	20*	1	2	3	18*	x	-3	-4
AF4-AF9 inh	-1	-11	-13	-1	-1	x	-3	-5
UUG fidelity	x	x	x	x	-8	x	-11	-6

[9] C[C@@H]1CCCCO[C@@H](CN(C)S(=O)(=O)c2cccs2)[C@H](C)CN([C@@H](C)CO)C(=O)c2cc(NS(=O)(=O)c3cn(C)cn3)ccc2O1
[10] C[C@H]1CCCCO[C@@H](CN(C)S(=O)(=O)c2cccs2)[C@@H](C)CN([C@@H](C)CO)C(=O)c2cc(NS(=O)(=O)c3cn(C)cn3)ccc2O1
[11] C[C@@H]1CN([C@H](C)CO)C(=O)c2cc(NS(=O)(=O)c3cn(C)cn3)ccc2O[C@@H](C)CCCCO[C@H]1CN(C)S(=O)(=O)c1cccs1
[12] C/C(=N\NC(=O)CN1CCN(S(=O)(=O)c2ccc(C)cc2)CC1)c1ccc(O)cc1
[13] CC1CC(C)CN(S(=O)(=O)c2ccc3c(c2)oc(=O)n3CC(=O)NCc2cccnc2)C1 (stereo unspecified)
[14] COc1cc(C=C2C(=O)C=CC2=O)ccc1O
[15] C[C@H](CO)N1C[C@H](C)[C@H](CN(C)C(=O)C2CCCCC2)OCCCC[C@H](C)Oc2ccc(NS(=O)(=O)c3ccc(F)cc3)cc2C1=O
[16] C[C@@H]1CCCCO[C@H](CN(C)C(=O)C2CCCCC2)[C@@H](C)CN([C@@H](C)CO)C(=O)c2cc(NS(=O)(=O)c3ccc(F)cc3)ccc2O1

Compound	9	10	11	12	13	14	15	16
E-sel inducer	x	x	x	0	-1	0	0	0
RAD54 inh	2	-1	x	-6	x	x	-7	-6
RAD52 anneal inh	84*	109*	4	-8	-3	8	0	6
SIRT5 block	-3	-7	x	15*	22*	28*	4	17*
AF4-AF9 inh	-3	-1	0	3	2	-12	3	5
UUG fidelity	-3	-7	x	-24	x	x	7	6

[17] C[C@@H]1CCCCO[C@H](CN(C)C(=O)C2CCCCC2)[C@H](C)CN([C@@H](C)CO)C(=O)c2cc(NS(=O)(=O)c3ccc(F)cc3)ccc2O1
[18] C[C@@H]1CCCCO[C@@H](CN(C)C(=O)C2CCCCC2)[C@@H](C)CN([C@H](C)CO)C(=O)c2cc(NS(=O)(=O)c3ccc(F)cc3)ccc2O1
[19] C[C@H](CO)N1C[C@H](C)[C@H](CN(C)C)Oc2ncc(-c3cccnc3)cc2C1=O
[20] CC(C)CC(=O)N1CCN(Cc2ccccc2[N+](=O)[O-])CC1
[21] C[C@@H]1CN([C@@H](C)CO)C(=O)c2cccc(NS(=O)(=O)c3cccs3)c2O[C@@H]1CN(C)Cc1ccc(Cl)c(Cl)c1
[22] C[C@@H]1CN([C@H](C)CO)C(=O)c2cccc(NS(=O)(=O)c3cccs3)c2O[C@H]1CN(C)Cc1ccc(Cl)c(Cl)c1
[23] COc1ccc(S(=O)(=O)Nc2cccc3c2O[C@H](CN(C)Cc2ccc(Cl)c(Cl)c2)[C@@H](C)CN([C@H](C)CO)C3=O)cc1
[24] COc1ccc2c3c(n(C)c2c1)[C@@H](CO)N(C(=O)C1CCC1)CC31CCN(C)CC1

Compound	17	18	19	20	21	22	23	24
E-sel inducer	0	0	0	x	23	349*	0	0
RAD54 inh	-1	5	-3	x	-18	-3	0	x
RAD52 anneal inh	-25	1	15	-8	-1	17	-5	8
SIRT5 block	16*	1	-3	32*	-1	0	15*	-4
AF4-AF9 inh	-1	-4	-4	1	1	0	7	3
UUG fidelity	3	-4	-6	x	-8	13	16	x

[25] O=C(NCc1ccc(F)cc1)c1cc(C2CCCCN2C(=O)CCCc2ccccc2)on1 (stereo unspecified)
[26] O=C(NCc1ccccc1)c1cc(C2CCCCN2C(=O)CCCc2ccccc2)on1 (stereo unspecified)
[27] CCn1c(C)nc2cc(C(=O)NNC(=O)Nc3ccc(Cl)c(Cl)c3)ccc21
[28] CO[C@H]1CN(C)C(=O)c2cc(NC(=O)Nc3ccccc3F)ccc2OC[C@@H](C)N(C)C[C@@H]1C
[29] COc1ccc(S(=O)(=O)Nc2ccc3c(c2)C(=O)N([C@@H](C)CO)C[C@@H](C)[C@H](CN(C)S(=O)(=O)c2cccs2)OCCCC[C@@H](C)O3)cc1
[30] Cc1ccc(S(=O)(=O)Nc2ccc3c(c2)C(=O)N([C@H](C)CO)C[C@@H](C)[C@H](CN(C)S(=O)(=O)c2cccs2)OCCCC[C@H](C)O3)cc1
[31] COc1ccc(S(=O)(=O)Nc2ccc3c(c2)C(=O)N([C@H](C)CO)C[C@H](C)[C@H](CN(C)S(=O)(=O)c2cccs2)OCCCC[C@@H](C)O3)cc1
[32] O=C(c1ccc(N2CCCC2)c([N+](=O)[O-])c1)N1CCN(S(=O)(=O)c2ccccc2)CC1
[33] CCCCCCCCCCCCCCCC[n+]1ccc(/C=N/O)cc1
[34] CCCCCCCCCCCCCCCC[n+]1ccc(C(N)=O)cc1
[35] CN(C)N1C(N)=C(C#N)C(c2ccc3c(c2)OCO3)C2=C1CCCC2=O (stereo unspecified)

Compound	25	26	27	28	29	30	31	32	33	34	35
E-sel inducer	83*	0	0	0	x	0	x	0	x	x	x
RAD54 inh	5	2	x	9	-8	3	-4	11	x	13	-5
RAD52 anneal inh	-8	-6	-18	3	1	12	0	-8	88*	x	-6
SIRT5 block	x	x	18*	6	16*	17*	11	33*	-4	x	-1
AF4-AF9 inh	-3	-8	1	-2	2	1	-1	-4	5	x	26*
UUG fidelity	-17	-7	x	-15	1	2	24	11	x	-19	9

Reprinted, compounds 34 to 35
[34] CCCCCCCCCCCCCCCC[n+]1ccc(C(N)=O)cc1
[35] CN(C)N1C(N)=C(C#N)C(c2ccc3c(c2)OCO3)C2=C1CCCC2=O (stereo unspecified)

Compound	34	35
E-sel inducer	x	x
RAD54 inh	13	-5
RAD52 anneal inh	x	-6
SIRT5 block	x	-1
AF4-AF9 inh	x	26*
UUG fidelity	-19	9
